Measurements from paper PMC4764977, “AZD8797 is an allosteric non-competitive modulator of the human CX3CR1 receptor” (Biochemical Journal, 2016).

Chains of the proteins cited; added tags and fusions are not shown.
UniProt P49238, whole entry: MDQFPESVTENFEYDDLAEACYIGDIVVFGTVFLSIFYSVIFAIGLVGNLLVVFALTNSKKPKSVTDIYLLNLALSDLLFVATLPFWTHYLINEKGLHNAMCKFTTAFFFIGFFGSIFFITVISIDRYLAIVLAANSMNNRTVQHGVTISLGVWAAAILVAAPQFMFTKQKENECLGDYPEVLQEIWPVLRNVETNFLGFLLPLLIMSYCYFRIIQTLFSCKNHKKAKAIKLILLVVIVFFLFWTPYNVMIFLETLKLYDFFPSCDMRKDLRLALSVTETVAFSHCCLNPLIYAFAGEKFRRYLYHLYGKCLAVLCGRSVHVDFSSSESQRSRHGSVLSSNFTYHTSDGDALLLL

Molecular target: human CX3CR1 (Homo sapiens, UniProt P49238)
Test: Equilibrium saturation binding, CHO-hCX3CR1 membranes
Conditions: Bmax comparison; tested as the radiolabelled form
Procedure: Cells were washed in PBS and lysed with an Ultra-Turrax Homogenizer in 50 mM Tris/HCl (pH 7.4) and 1 mM EDTA with Complete™ protease inhibitor (Roche). […] Protein concentration was determined using the BCA method (Thermo Fisher Scientific). […] The filter plate was washed in ice-cold 25 mM HEPES (pH 7.4), 5 mM MgCl2, 1 mM CaCl2 and 500 mM NaCl and dried at 50°C for 1 h. Scintillation cocktail, Optiphase Supermix (PerkinElmer) was added to each well and the radioactivity was measured using a MicroBeta Trilux reader (PerkinElmer). […] The DMSO concentration was held constant at 1%. where Kd is the radioligand dissociation constant. Saturation binding isotherms were analysed by non-linear regression and globally fitted to a hyperbolic one-site binding model taking into account both NSB and total binding to calculate the total receptor number (Bmax) and radioligand dissociation constant (Kd): […] NSB=NS·X+Background, where NS is the concentration-dependent NSB. To visualize the manner of binding of CX3CL1 and AZD8797, a diagnostic affinity ratio plot designed to compare strictly competitive behaviour with allosteric interactions was used. […] For single site competitive interactions, the resulting linear plot has the slope of 1.0. […]

For `CC(C)C[C@H](CO)Nc1nc(S[C@@H](C)c2ccccc2)nc2nc(N)sc12` [AZD8797], which “More binding sites than 125I-CX3CL1” value is on record?
Its value is 14 fold.
